This assay deals with Angiotensin II receptor type 1 (AT1) (UniProt P30556). In words: cell-based or functional assay.

For the substance biased agonist SII (peptide), the tau of the fluorescence response of the BArr 5A arrestin biosensor, HEK293T cells co-transfected with the receptor, time-lapse imaging worked out at 119 s.

For the origin of these results see US20210247384A1.
